These results are taken from ChEMBL document CHEMBL1129489 (J Med Chem, 1996).

Protein sequences, listed by entry. Tags and fused reporters are not part of them.
UniProt P21728, whole entry: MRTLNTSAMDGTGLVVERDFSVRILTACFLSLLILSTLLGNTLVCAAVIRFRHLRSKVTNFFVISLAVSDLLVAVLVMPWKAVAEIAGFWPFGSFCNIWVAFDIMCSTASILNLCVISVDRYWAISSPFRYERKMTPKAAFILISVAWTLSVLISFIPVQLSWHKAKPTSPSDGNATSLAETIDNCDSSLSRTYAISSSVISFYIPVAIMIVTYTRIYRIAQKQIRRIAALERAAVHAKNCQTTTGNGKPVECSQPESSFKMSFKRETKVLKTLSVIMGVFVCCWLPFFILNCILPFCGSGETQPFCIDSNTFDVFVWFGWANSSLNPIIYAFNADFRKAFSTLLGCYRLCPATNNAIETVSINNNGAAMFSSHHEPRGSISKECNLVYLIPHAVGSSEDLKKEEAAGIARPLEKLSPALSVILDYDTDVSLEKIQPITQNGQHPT

In test [1] the target is T1, D(1A) dopamine receptor (Homo sapiens, UniProt P21728). In words: Equilibrium dissociation constant against recombinant Dopamine receptor D1A expressed in COS7 cells. The format is cell-based, COS-7.
Test [2] concerns the target T1, D(1A) dopamine receptor. The following applies: COS-7.

As usually defined, the Kd is the concentration at which binding is half-saturated. Turning to `CNC[C@H](O)c1ccc(O)c(O)c1` [EPINEPHRINE], the Kd at D(1A) dopamine receptor [1] stood at 55 µM. This molecule also displayed a Log 1/Kd at D(1A) dopamine receptor [2] of -4.74.
On the same counts, the results for `NCCc1c[nH]c2ccc(O)cc12` [SEROTONIN] are 9.69 µM and -3.99.
